Test results published in the OPERA property sets (Mansouri et al. 2018).

For CC(C)N1CCC(N(C(=O)Cc2ccccc2)c2ccc(Cl)cc2)CC1, the logP was 4.85.
